The text below walks through data of PubChem BioAssay AID602313 (National Center for Advancing Translational Sciences (NCATS), 2012).

Each structure is given as a SMILES string. “And” between values parts separate entries of the source, which are not always exact repeats. Equal entries are not always repeated. This is a selection; strong and weak results do not stand in their true shares. Some of these compounds have results that are not shown, active ones among them. The source made the active and inactive calls. Calls follow the shape of the dose curve; as a rule, active = well fitted inhibition curve with a large enough effect; inconclusive = small, poorly fitted or top-dose-only effect; inactive = flat fitted curve, though single readings scatter.

The assay is described as follows: qHTS for Inhibitors of Vif-A3F Interactions: qHTS. Also: % of control where 0% means no effect; nearly all actives have a fitted effect of over 65% in size. The following applies: HeLa A3F-eYFP + Vif (tagged APOBEC3F with the HIV-1 protein that degrades it), YFP fluorescence increase; at 46.1 µM (top of the series). From the text: The recent discovery and characterization of host restriction factors, which provide a potent defense to invading retroviruses, has provided new targets for antiviral drug development. APOBEC3G (A3G) and APOBEC3F (A3F) are potent cytidine deaminases that block HIV-1 replication; HIV-1 expresses the Vif protein, which counteracts A3G and A3F by binding to them and inducing their proteasomal degradation. The Vif-A3G and Vif-A3F interactions provide two potential targets for development of small molecules which can interfere with the ability of Vif to degrade A3G or A3F. […] To identify inhibitors that can interfere with Vif mediated degradation of A3G and A3F, we have developed Hela cell lines that stably express A3G or A3F tagged with eYFP at the C-terminal end (A3G-eYFP or A3F-eYFP, respectively) and Vif. In the absence of an inhibitor, Vif induces degradation of A3G-eYFP and A3F-eYFP, and the cells are not fluorescent. In the presence of an inhibitor, it is expected that Vif will be unable to degrade A3G-eYFP and/or A3F-eYFP, resulting in an increase in yellow fluorescence. In this assays Vif A3F was screened against the Molecular Library Small Molecule Repository (MLSMR). NIH Chemical Genomics Center [NCGC] NIH Molecular Libraries Probe Centers Network [MLPCN] MLPCN Grant: MH093245 Assay Submitter (PI): Vinay Pathak, National Cancer Institute
5 uL of 700 cells/well of A3F-YFP cells are dispensed into black, clear bottom plates. The plates are incubated overnight at 37 deg C. 23 nL of compounds are added by pintool. The plates are incubated overnight at 37 deg C and then read on the TTP Acumen (Ex 488/ Em 500-530).
In general terms: qHTS replaces the single test concentration by a dilution series.
As to `COc1ccc(C(=O)NCC2(N(C)C)CCCCC2)cc1Cl`, the activity, negative = active was inactive: -4.75%.

As to `COc1ccc(Cl)cc1C(=O)NCC1(N(C)C)CCCCC1`, the activity, negative = active was inactive: -4.29%.

In the case of `COc1cccc(C(=O)NCC2(N3CCCCC3)CCCCC2)c1`, the activity, negative = active is inactive: -5.75%.

In the case of `O=C(NCC1(N2CCCCC2)CCCCC1)c1cccc(Cl)c1`, the activity, negative = active was inactive: -2.39%.

`CN(C)C1(CNC(=O)c2ccc(Br)cc2)CCCCC1`: the activity, negative = active is inactive: -2.77%.

Consider `COc1cc(C(=O)NCC2(N(C)C)CCCCC2)c([N+](=O)[O-])cc1OC`, for which the activity, negative = active is inactive: 0.764%.

Take `COc1ccc(Br)c(C(=O)NCC2(N3CCCCC3)CCCCC2)c1`: the activity, negative = active was inactive: -3.55%.

With `Cc1cccc(C(=O)NCC2(N(C)C)CCCCC2)c1`, the activity, negative = active was inactive: -4.49%.

As to `COc1cc(C(=O)NCC2(N(C)C)CCCCC2)cc(OC)c1OC`, the activity, negative = active was inactive: 4.39%.

Turning to `C=C(C)C#CC(O)(C(=O)OC1CCN(C)CC1)c1ccccc1` (stereo unspecified), the activity, negative = active was inactive: -7.99%.

With `CN(C)c1cccc(C(=O)NCC2(N(C)C)CCCCC2)c1`, the activity, negative = active was inactive: 3.06%.

As for `O=C(OCCN1CCCC1)C(O)(c1ccccc1)c1ccccc1`, the activity, negative = active was inactive: -13.5%.

With `CC(C)Oc1ccc(C(=O)NCC2(N(C)C)CCCCC2)cc1`, the activity, negative = active was inactive: -0.746% and inactive: 2.66%.

Take `O=C(OC1CN2CCC1CC2)C(CO)(c1ccccc1)c1ccccc1` (stereo unspecified): the activity, negative = active was inactive: -8.58%.

`COc1cccc(C(=O)NCC2(N3CCOCC3)CCCCC2)c1`: the activity, negative = active is inactive: 0.61%.

On to `CC(C)COc1ccc(C(=O)NCC2(N(C)C)CCCCC2)cc1`, for which the activity, negative = active was inactive: 2.44%.

On to `CC(C)N1C(=O)CC2(CCN(CCOC(=O)C(O)(c3ccccc3)c3ccccc3)CC2)C1=O`, for which the activity, negative = active was inactive: -1.8%.

As for `COc1cc(SC)ccc1C(=O)NCC1(N(C)C)CCCCC1`, the activity, negative = active is inactive: -13.9%.

For `CCN(CC)CC(C)C(C)OC(=O)C(O)(c1ccccc1)c1ccccc1` (stereo unspecified), the activity, negative = active is inactive: 5.35%.

Regarding `CN(C)C1(CNC(=O)c2cccc(Cl)c2)CCCCC1`, the activity, negative = active is inactive: 0.255%.

Consider `CN(C)C1(CNC(=O)c2ccccc2F)CCCCC1`, for which the activity, negative = active was inactive: 7.21%.

As for `Cc1ccc(C(=O)NCC2(N3CCCCC3)CCCCC2)cc1`, the activity, negative = active was inactive: -18.7%.

`O=C(NCC1(N2CCCCC2)CCCCC1)c1cc([N+](=O)[O-])ccc1Cl`: the activity, negative = active was inactive: -4.86%.

Regarding `CN1[C@@H]2CC[C@H]1CC(OC(=O)C(O)(c1ccccc1)c1ccccc1)C2` (stereo partly specified), the activity, negative = active is inactive: -1.97%.

In the case of `O=C(NCC1(N2CCCCC2)CCCCC1)c1cc(F)c(F)cc1Cl`, the activity, negative = active was inactive: -3.66%.

`C=CCN1CCN(CCOC(=O)C(O)(c2ccccc2)c2ccccc2)CC1`: the activity, negative = active is inactive: -2.23%.

Regarding `O=C(NCC1(N2CCCCC2)CCCCC1)c1cccc(Br)c1`, the activity, negative = active was inactive: 11.1%.

In the case of `Cc1cc(C(=O)NCC2(N3CCCCC3)CCCCC2)ccc1[N+](=O)[O-]`, the activity, negative = active was inactive: 4.68%.

For `CCN1CCCC(OC(=O)C2(O)c3ccccc3C=Cc3ccccc32)C1` (stereo unspecified), the activity, negative = active is inactive: 2.13%.

`CCOc1cccc(C(=O)NCC2(N(C)C)CCCCC2)c1`: the activity, negative = active is inactive: -4.8%.

Turning to `COc1ccc(C(=O)NCC2(N(C)C)CCCCC2)cc1`, the activity, negative = active was inactive: -0.907%.

Consider `CN(C)C1CCCC1OC(=O)C(O)(c1ccccc1)c1ccccc1` (stereo unspecified), for which the activity, negative = active is inactive: 4.86%.

Turning to `CN(C)c1ccc(C(=O)NCC2(N(C)C)CCCCC2)cc1`, the activity, negative = active was inactive: 6.76%.

As for `CN(C)C1(CNC(=O)c2ccccc2[N+](=O)[O-])CCCCC1`, the activity, negative = active is inactive: 4.8%.

For `Cc1ccccc1C(=O)NCC1(N2CCCCC2)CCCCC1`, the activity, negative = active was inactive: 0.223%.

As for `CCCCOc1ccccc1C(=O)NCC1(N(C)C)CCCCC1`, the activity, negative = active is inactive: 0.226%.
